The data set in a line: Solubility in water. The format is physicochemical.

As to “1-[4-hydroxy-N2-(10,12-dimethyl-1-oxotetradecyl)-ornithine]-4-[3-hydroxy-4′-O-(2-carbamoyl acetic acid-homo-tyrosine]-5-[3-hydroxyglutamine]-6-[3-hydroxyproline]echinocandin B [IV]”, the solubility in water is above 10000 µg/mL.

Source of the values: patent publication EP0448343A2, “Lipopeptide derivatives” (MERCK & CO. INC., priority 1990, dated 1991).
